Molecular target: PKa (Homo sapiens, UniProt P03952)
Test: DXS-activated cleavage of HK in undiluted plasma (immunoblot)
Type: biochemical
Settings: 300 nM inhibitor; % of HK remaining after 20 min incubation with DXS vs unactivated plasma
Procedure: DXS-activated cleavage of HK in undiluted plasma was performed in the absence or presence of 300 nM PKa inhibitor and quantified by SDS-PAGE gel electrophoresis, using 7.5% Criterion TGX Precast gels (Biorad). Transfer was made onto Immunobilon-FL PVDF membrane. Image analysis was done using the LICOR imaging system. Mouse monoclonal anti-HK antibody (MAB15692, R&D systems) was used for traditional immunoblotting. Data presented as % of HK remaining after 20 min incubation with DXS compared to HK levels in unactivated plasma (Table 1).

Sequences of proteins named here, by UniProt entry; tags and fusion partners are left off. Residues count along the entry.
UniProt P03952, 20-390 partner limits assumed: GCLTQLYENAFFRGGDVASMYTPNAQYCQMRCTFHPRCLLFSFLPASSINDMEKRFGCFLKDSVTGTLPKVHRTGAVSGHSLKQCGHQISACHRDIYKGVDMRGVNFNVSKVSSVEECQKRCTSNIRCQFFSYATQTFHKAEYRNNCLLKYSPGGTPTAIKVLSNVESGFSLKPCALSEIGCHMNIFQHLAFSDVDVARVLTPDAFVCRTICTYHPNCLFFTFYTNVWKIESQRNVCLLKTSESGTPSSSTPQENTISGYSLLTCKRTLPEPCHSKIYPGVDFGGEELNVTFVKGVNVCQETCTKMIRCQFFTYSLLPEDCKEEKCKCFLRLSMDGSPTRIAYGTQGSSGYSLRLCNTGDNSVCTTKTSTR
UniProt P03952, 391-638 limits assumed: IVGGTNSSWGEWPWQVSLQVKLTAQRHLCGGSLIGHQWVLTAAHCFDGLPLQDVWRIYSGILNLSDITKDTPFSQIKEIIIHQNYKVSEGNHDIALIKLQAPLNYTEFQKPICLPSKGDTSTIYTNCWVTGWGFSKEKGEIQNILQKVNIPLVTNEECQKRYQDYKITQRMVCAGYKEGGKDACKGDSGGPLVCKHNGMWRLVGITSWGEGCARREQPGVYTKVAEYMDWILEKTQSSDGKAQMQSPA

An HK protection of 85% was found for `COCc1nn(Cc2ccc(Cn3ccccc3=O)cc2)cc1C(=O)NCc1nccc(OC)c1F` [compound of Formula A, N-[(3-fluoro-4-methoxypyridin-2-yl)methyl]-3-(methoxymethyl)-1-({4-[(2-oxopyridin-1-yl)methyl]phenyl}methyl)pyrazole-4-carboxamide] in this work.

From patent US20240122909A1, “TREATMENTS OF HEREDITARY ANGIOEDEMA” (KALVISTA PHARMACEUTICALS LIMITED, priority 2021, published 2024)
